The results in this text go back to patent EP2138169B1, “Transdermal delivery system of hormones without penetration enhancers” (Bayer Intellectual Property GmbH, priority 2003, dated 2005).

Molecules are shown by their SMILES.

On the set-up of this data set: species or system women. The conditions noted are these: female, human, in vivo. An excerpt: The effect on ovulation inhibition, serum drug concentrations and safety of a patch of the invention was investigated in a selected population of women. The study design was based on the requirements of the EMEA quideline for clinical studies with contraceptive steroids (Commitee for Proprietary Medicinal Products, CPMP/EWP 519/98).
Arcare MA-24A® is a polyisobutylene based adhesive from Adhesive Research.
The treatment phase includes a period of two menstrual cycles. The first treatment in the first cycle began one day after the volunteers started menstruating in this cycle by application of a patch. A total of three test patches were applied in intervals of 7 days between, such as application at days 1, 8 and 15 of the first cycle - each at different application sites- during each treatment cycle. Each patch was worn for 7 days, then replaced with a new patch to complete a total of 21 days of continuous use. This was followed by a 7-day treatment-free interval before the next treatment period started with a total of three patches applied, each applied with an interval of 7 days. If the patches were lost or became more than 40% detached, a new patch was applied.
The AUC was calculated according to the linear trapezoidal rule. […]
After incubation and centrifugation, the resultant precipitate was redissolved with NaOH. The assay has a lower limit of quantification of approx. 250 pg/ml.

Regarding `C#C[C@]1(O)C=C[C@H]2[C@@H]3CCC4=CC(=O)CC[C@@H]4[C@H]3CC[C@@]21CC` [Gestodene, 13β-Ethyl-17α-ethynyl-17β-hydroxy-4,15-gonadien-3-one], the “Tmax (mean) of gestodene (GSD)” value is listed as 144 h.
